Experimental findings from patent US20130045500A1, “CELL EVALUATION METHOD” (NATIONAL CANCER CENTER, priority 2011, published 2013) are described below.

In the test the test system is human breast-cancer-derived cell line BT474. Briefly: Spheroid formation on NanoCulture plate observed by time-lapse microscope. The format is cell-based. Conditions: 0, 0.1, 1.0, 10 μg/mL, day zero to seventh day after medicine was added. The protocol: A human breast-cancer-derived cell line BT474 was suspended in a culture medium (NCM-M made by SCIVAX Co., Ltd.), and seeded on a NanoCulture (registered mark) plate (made by SCIVAX Co., Ltd., 96-well plate, material of concavo-convex structure surface: cyclic-olefin polymer (COP), planar shape of concavo-convex structure: regular hexagon, width between unit structures (line width): 700 nm, minimum internal diameter of unit structure: 3 μm, and depth: 1 μm) at 1×10^4 cells/well, and incubated at 37° C. and 5% CO2.
The effect of the medicine on the formation of spheroids in each concentration from the day zero to the seventh day after the medicine was added were observed through a time-lapse microscope, and the image pickup results are shown in FIG. 2.
Furthermore, the image of the change in the number of spheroids in each concentration from the day zero to the seventh day after the medicine was added was picked up using the time-lapse microscope, and the number of the spheroids was counted and taken as a relative value, and the results are shown in FIG. 4.

Consider trastuzumab, for which the “change in the number of spheroids” value was “the number of the spheroids changes depending on the medicine concentration”.
